Experiment [1] concerns the target T1, beta-catenin-B-cell lymphoma 9 protein complex (Homo sapiens, UniProt P35222). Kind of experiment: Inhibition of N-terminal His6-tagged full-length recombinant beta-catenin (1 to 781 residues) (unknown origin) expressed in Escherichia coli BL21 DE3/N-terminal FAM tagged BCL9 HD2(350 to 375 residues) (unknown origin) protein-protein interaction assessed as inhibition constant incubated for 3 hrs by competitive fluorescence polarization assay. In general terms: In fluorescence polarisation assays a small probe gives low polarisation when free and higher when bound to something large.

Amino acid sequences for entries named in this document (tags omitted).
UniProt P35222, whole entry: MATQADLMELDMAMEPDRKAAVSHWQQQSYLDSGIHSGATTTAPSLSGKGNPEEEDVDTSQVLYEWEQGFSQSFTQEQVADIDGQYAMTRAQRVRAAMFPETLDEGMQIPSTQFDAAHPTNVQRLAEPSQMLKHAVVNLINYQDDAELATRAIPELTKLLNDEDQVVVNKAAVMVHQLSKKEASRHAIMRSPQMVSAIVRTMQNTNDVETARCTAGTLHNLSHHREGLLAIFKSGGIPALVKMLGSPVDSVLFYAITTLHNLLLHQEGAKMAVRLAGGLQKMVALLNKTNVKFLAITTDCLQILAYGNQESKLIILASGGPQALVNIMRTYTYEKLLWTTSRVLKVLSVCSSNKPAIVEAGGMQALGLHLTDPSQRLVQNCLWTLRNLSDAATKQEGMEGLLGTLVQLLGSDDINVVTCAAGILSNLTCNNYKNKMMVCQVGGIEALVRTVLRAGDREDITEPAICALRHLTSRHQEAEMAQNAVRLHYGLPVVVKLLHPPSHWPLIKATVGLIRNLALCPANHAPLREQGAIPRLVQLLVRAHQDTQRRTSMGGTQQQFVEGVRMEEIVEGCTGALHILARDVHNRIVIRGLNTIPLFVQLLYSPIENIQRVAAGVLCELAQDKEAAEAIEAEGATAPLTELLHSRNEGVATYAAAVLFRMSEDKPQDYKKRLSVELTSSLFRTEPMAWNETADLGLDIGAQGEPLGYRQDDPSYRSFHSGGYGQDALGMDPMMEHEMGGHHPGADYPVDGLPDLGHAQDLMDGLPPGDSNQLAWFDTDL

Experiment [2] addresses T1, beta-catenin-B-cell lymphoma 9 protein complex. Kind of experiment: Inhibition of beta-catenin/BCL9 protein-protein interaction in Wnt-dependent human HCT-116 cells assessed as reduction in Axin2 expression level by qRT-PCR assay. In kind it is cell-based. Background: Quantitative PCR measures a nucleic acid by following its amplification.

Take `CC(C)c1ccc(COC(=O)N2CCCC(c3cccc(OC(C)(C)C(=O)O)c3)C2)cc1` (configuration not stated): the IC50 (usually the concentration that gives 50% inhibition) came to 5.39 µM in experiment [1] and 14.6 µM in experiment [2].
